According to publication PMC11088064 (2024):

Target: Opdivo
Assay: SPR; pH 6.0

Kd: 1.03 nM
B1: hPD-1 (PD-1-H5221, ACRO Biosystems) (receptor)
chain: LDSPDRPWNPPTFSPALLVVTEGDNATFTCSFSNTSESFVLNWYRMSPSNQTDKLAAFPEDRSQPGQDCRFRVTQLPNGRDFHMSVVRARRNDSGTYLCGAISLAPKAQIKESLRAELRVTERRAEVPTAHPSPSPRPAGQFQTLV
